Measured values from patent publication US8772197B2, “Compositions for chemical and biological defense” (dated 2014).
≈ marks a conversion by molar mass, not a printed value.

Columns and labels:
[1] = Hydrolysis of p-nitrophenyl acetate (UV/Vis, 404 nm)
[2] = Ethyl-paraoxon hydrolysis by hydroxamic acid nucleophiles (UV/Vis)
[3] = Methyl-paraoxon hydrolysis by hydroxamic acid nucleophiles (UV/Vis)
[4] = cited from earlier work
[5] = cited from earlier work; remark: listed apart in the source
[6] = Spontaneous hydrolysis of methyl-paraoxon (31P NMR); conditions: for Kinetic constant, Reaction on methoxide / Kinetic constant, Reaction on p-nitrophenol: spontaneous hydrolysis

## CC(=O)NO
[1]; hydrolysis of p-nitrophenyl acetate
  reactivity difference between AHA and PHA: 4
[2]; hydrolysis of ethyl-paraoxon
  reactivity difference between AHA and PHA: 17
[2]; pH 9
  Second order kinetic constant of hydrolysis of ethyl-paraoxon: 0.0075 M⁻¹ s⁻¹
[3]; hydrolysis of methyl-paraoxon
  reactivity difference between AHA and PHA: 14
[3]; pH 9
  Second order kinetic constant of hydrolysis of methyl-paraoxon: 0.025 M⁻¹ s⁻¹

## CCOP(=S)(OCC)Oc1ncc(Cl)c(Cl)c1Cl
[4]
  solubility in water: 2 µg/mL (≈ 5.7 µM)

## O=C(O)c1ccccc1I(=O)=O
[5]
  pKa: 2.4
[4]; r.t.
  solubility in most organic solvents (except DMSO): insoluble

## N/C(C/C(N)=N/O)=N\O
[1]; pH 8, 50 mM Tris, 25° C., based on molar amidoxime concentration, [PNPA]0=0.25 mM particles, 0.05 mM malonohydroxamamide
  second-order kinetic constant kcat of PNPA hydrolysis: 0.046 M⁻¹ s⁻¹

## COP(=O)(OC)Oc1ccc([N+](=O)[O-])cc1
[6]; pH = 8, 50 mM Tris buffer
  Kinetic constant, Reaction on methoxide: 4.2e-07 s⁻¹
  Kinetic constant, Reaction on p-nitrophenol: 1.1e-07 s⁻¹
[6]; pH = 10.6, 50 mM CAPS buffer
  Kinetic constant, Reaction on methoxide: 1.4e-06 s⁻¹
  Kinetic constant, Reaction on p-nitrophenol: 9.3e-06 s⁻¹
[6]; solution pH from 8 to 10.6
  increase of kinetic constant of reaction on p-nitrophenol groups: 85 times
